ERp5 block: blocks human ERp5 reductase activity on insulin | inhibition, % at 9.99 µM | Q15084 | ERp5 insulin aggregation, absorbance 650 nm, 90 min | AID 651711 | actives 0.05% (n = 350,000);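 active = mean replicate inhibition above about 25%, with every replicate also reaching it, limit read from the data, passing the limit was not always enough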
PDI inh: PDI (human) enzyme inhibition. inhibition, % at 10 µM. PDI insulin aggregation turbidity, A650, 90 min. actives 0.052% (n = 350,000). AID 588391;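 active = mean inhibition across replicates of 30% or more, whatever share of single replicates reach that level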
Yeast UUG start: alters start codon recognition fidelity in yeast; AID 602363; activity score, % at 18.7 µM; 350,000 tested, 0.13% active; S. cerevisiae UUG-firefly luciferase reporter, luminescence/redox ratio;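 active means replicate mean at a twofold rise or more, about +100% in these data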;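 further: firefly luciferase made from a UUG start codon reports start codon fidelity; reporter light over untreated wells divided by growth signal over untreated wells; some hits fall short of that in this replicate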
PglD inh: inhibitors of Campylobacter jejuni PglD acetyltransferase | inhibition, % at 12.5 µM | purified PglD enzyme, DTNB colorimetric CoA detection | AID 602405 | actives 0.098% (n = 360,000); in the data active = inhibition above about 16%, passing the limit was not always enough
FGF22 binding: binders of recombinant human FGF22 by thermal shift. Q9HCT0. SYPRO orange fluorescence; percent of sucrose octasulfate shift, DMSO zero. activity (Tm shift, normalised), % at 9.99 µM. actives 1.5% (n = 340,000);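 active = mean Tm shift, scaled 0 neutral to 100 positive control, at about 1.3% or above, every replicate too, limit read from the data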
ARNT-TACC3 inh: ARNT/TACC3 interaction disruption; actives 0.66% (n = 390,000); Q9Y6A5; inhibition, % at 9.99 µM; AlphaScreen His-ARNT PAS-B/GST-TACC3 binding, luminescence; TACC3 fragment carries E629A point mutation;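 active = mean inhibition of replicates at least 50% and at least half of replicates each reaching 50%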;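 also: 0% = complete ARNT plus TACC3 wells and 100% = ARNT alone without TACC3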
Starred values were filed as active, the others as inactive; · = no result given. An excerpt weighted towards active compounds, which were near 1.9% of everything screened.

no.	canonical_smiles	ERp5 block	PDI inh	Yeast UUG start	PglD inh	FGF22 binding	ARNT-TACC3 inh
1	CCCCN1CC(COCc2ccccc2)Oc2cccc(N3CCCC3)c2S1(=O)=O (stereo not given)	-2	-14	-17	-6	43*	0
2	O=C1N/C(=N/O)S/C1=C/c1cccc([N+](=O)[O-])c1	3	22	-4	0	44*	-3
3	C[C@H]1CN([C@@H](C)CO)C(=O)c2cccc(NC(=O)Nc3ccc(C(F)(F)F)cc3)c2O[C@@H]1CN(C)CC1CC1	3	·	-9	1	0	1
4	O=C(Nc1ccc(Cl)cc1)Nc1ccccc1NS(=O)(=O)c1cccs1	-2	-4	·	·	0	0
5	O=C(Nc1ccc(F)cc1)Nc1ccccc1NS(=O)(=O)c1cccs1	3	3	-13	4	49*	1
6	COCCCN=C1NN=C(c2cc(C)n(Cc3ccccc3Cl)c2C)CS1	-5	-16	·	·	43*	3
7	O=C(C[C@@H]1C[C@@H]2c3cc(NC(=O)NC4CCCC4)ccc3O[C@@H]2[C@H](CO)O1)NCc1ccccc1F	-3	·	·	-2	0	-10
8	CCOc1ccc(-c2nnc3ccc(SCC(=O)Nc4nc5ccccc5s4)nn23)cc1	-3	3	·	·	6.6*	-10
9	CCOc1ccc2nc(NC(=O)CSc3nc(SC)ns3)sc2c1	13	-6	-13	-4	1.7*	-4
10	CCOc1ccc2nc(NC(=O)CSc3ccc(Cl)cc3)sc2c1	·	3	·	·	·	-4
11	C[C@@H]1CCCCO[C@H](CN(C)C(=O)Nc2ccccc2)[C@H](C)CN([C@H](C)CO)C(=O)c2cc(NC(=O)Nc3ccc(F)cc3)ccc2O1	1	·	-13	1	0	-2
12	CO[C@@H](CN(C)S(=O)(=O)c1ccc(C)cc1)[C@@H](C)CN([C@H](C)CO)S(=O)(=O)c1cccc(Cl)c1	5	·	·	-2	0	4

no.	canonical_smiles	ERp5 block	PDI inh	Yeast UUG start	PglD inh	FGF22 binding	ARNT-TACC3 inh
13	C[C@@H]1CCCCO[C@H](CN(C)S(=O)(=O)c2ccccc2)[C@@H](C)CN([C@@H](C)CO)C(=O)c2cc(NC(=O)Nc3ccc(F)cc3)ccc2O1	-3	·	1	4	0	-2
14	O=C(N/N=C/C=C\c1ccco1)c1ccccn1	2	1	·	·	0	68*
15	O=C(N/N=C(\Cc1ncc[nH]1)c1ccccc1)c1ccccc1	-2	·	·	·	0	·
16	C(=N\NC(=Nc1ccccc1)c1ccccn1)/c1ccccn1	·	-3	·	·	·	87*
17	Cn1ncc(Cl)c1C(=O)N/N=C/c1ccccn1	-3	-2	-27	-1	0	66*
18	O=C(N/N=C(\Cc1ncc[nH]1)c1ccccc1)c1ccncc1	3	-1	-16	1	42	64*
19	Clc1ccc(/C=N/NC(=Nc2ccccc2)c2ccccn2)c(Cl)c1	·	2	-73	1	·	38
20	O=C(N/N=C/c1ccccn1)c1sc2ccccc2c1Cl	7	-10	-52	5	·	55*
21	O=C(N/N=C/c1c[nH]c2ccccc12)c1sc2ccccc2c1Cl	·	-1	-14	5	·	42
22	CNC(=S)N/N=C/C1=CCC2CC1C2(C)C (stereo not given)	0	1	·	·	0	5
23	CC1(C)C2CC=C(/C=N/NC(=O)c3ccccc3O)C1C2 (stereo not given)	-1	3	-3	-7	43*	·
24	O=C(N/N=C/c1ccccn1)c1ccco1	·	-5	-16	0	·	45*

Every second line gives: ERp5 block	PDI inh	Yeast UUG start	PglD inh	FGF22 binding	ARNT-TACC3 inh
25: COc1cc(C(=O)N/N=C/c2ccccn2)cc(OC)c1OC
→ 10	1	·	·	0	48*
26: O=C(C[C@@H]1CC[C@H]2[C@@H](COC[C@@H](O)CN2Cc2cccc(Cl)c2)O1)N1CCOCC1
→ -3	·	-10	-3	0	5
27: CCCNC(=O)[C@H]1[C@H](CO)[C@H]2Cn3c(ccc(-c4ccccc4F)c3=O)[C@H]2N1C(=O)CC
→ 4	·	·	-1	0	2
28: Cc1noc(C)c1NC(=O)N(C)C[C@@H]1OCCCC[C@H](C)Oc2ccc(NS(=O)(=O)c3ccc(Cl)cc3)cc2C(=O)N([C@H](C)CO)C[C@@H]1C
→ 1	·	4	0	·	-10
29: Cc1ccccc1C(=O)N/N=C/c1ccccn1
→ -2	6	-32	-4	0	12
30: COCc1c(C(=O)N/N=C\c2ccccn2)nnn1-c1nonc1N
→ 5	-4	-9	-5	0	74*
31: COCc1c(C(=O)N/N=C/c2c[nH]c3ccccc23)nnn1-c1nonc1N
→ 3	3	-19	2	0	-9
32: O=C(N/N=C\c1ccccn1)c1ccccc1O
→ 1	11	·	·	44*	59*
33: O=C(N/N=C/c1ccccn1)c1ccccc1
→ 0	-4	-21	9	0	18
34: O=C(N/N=C/c1ccccn1)c1ccncc1
→ 2	2	-16	-4	0	69*

The final two entries of the part before lead into the next.
Every second line gives: ERp5 block	PDI inh	Yeast UUG start	PglD inh	FGF22 binding	ARNT-TACC3 inh
33: O=C(N/N=C/c1ccccn1)c1ccccc1
→ 0	-4	-21	9	0	18
34: O=C(N/N=C/c1ccccn1)c1ccncc1
→ 2	2	-16	-4	0	69*
35: Cc1nc2ccccc2n1CC(=O)N/N=C\c1ccccn1
→ ·	9	-28	-2	·	40*
36: C[C@@H]1CN([C@H](C)CO)C(=O)c2cc(C3=CCCCC3)cnc2O[C@H]1CN(C)Cc1ccccn1
→ 12	·	-14	-6	0	8
37: O=C1CC[C@@H]2c3[nH]c4ccc(F)cc4c3CCN12
→ 0	·	-11	-4	0	10
38: O=C(N/N=C\c1ccncc1)c1ccccc1O
→ -2	15	·	·	·	5
39: O=C(N/N=C1\C/C(=N\NC(=O)c2ccncc2)c2ccccc21)c1ccncc1
→ 0	5	-21	-2	0	67*
40: O=C(N/N=C/c1cccc2cccnc12)c1ccccc1O
→ 2	4	-43	-6	0	72*
41: O=C(NC1Cc2ccccc2C1)[C@H]1[C@H](CO)[C@H]2Cn3c(cccc3=O)[C@H]2N1C(=O)C1CC1
→ 1	·	-7	0	0	-9
42: COc1ccc(-c2noc(CN3CCC(Cc4ccccc4)CC3)n2)cc1
→ -1	0	·	·	0	-5
43: COCC1CCN(Cc2nc(-c3ccc(OC)cc3)no2)CC1
→ -3	4	·	·	43*	-5
44: CN1c2ccc(-c3ccccc3F)cc2[C@H]2[C@H](CCN2S(=O)(=O)c2ccc(F)cc2)[C@H]1CO
→ 0	·	-12	-4	0	1

Every second line gives: ERp5 block	PDI inh	Yeast UUG start	PglD inh	FGF22 binding	ARNT-TACC3 inh
45: O=C1CCC/C(=N/Nc2ccc(Cl)cc2)C1
→ 1	11	·	·	44*	2
46: O=[N+]([O-])c1ccc(Oc2cccc3cccnc23)c([N+](=O)[O-])c1
→ ·	7	·	·	·	active
47: Cc1ccnc(NC2CCCCC2)c1
→ 4	-9	·	·	44*	4
48: Cc1cc(NC2CCCCC2)nc2ccccc12
→ 1	0	·	·	0	·
49: CC(C)CCNC(=O)C(=O)NC1CCCC1
→ 5	12	·	·	44*	-5
50: CCC(C)NC(=O)C(=O)NC1CCCC1 (stereo not given)
→ -1	28	·	·	44*	10
51: O=C1CS(=O)(=O)C(c2ccccc2)N1c1cccc(Cl)c1 (stereo not given)
→ 0	·	33	-2	0	9
52: Cc1ccc(S(=O)(=O)NCC[C@@H]2CC[C@@H](NC(=O)CC3CC3)[C@@H](CO)O2)cc1
→ -2	·	·	-1	0	2

Some of these compounds in order of their number in PglD inh, largest number first:
entry | SMILES | PglD inh
5 | O=C(Nc1ccc(F)cc1)Nc1ccccc1NS(=O)(=O)c1cccs1 | 4
27 | CCCNC(=O)[C@H]1[C@H](CO)[C@H]2Cn3c(ccc(-c4ccccc4F)c3=O)[C@H]2N1C(=O)CC | -1
7 | O=C(C[C@@H]1C[C@@H]2c3cc(NC(=O)NC4CCCC4)ccc3O[C@@H]2[C@H](CO)O1)NCc1ccccc1F | -2
